US20050191668A1, “Methods of using peroxisome proliferator-activated receptor alpha target genes” (priority 2004, published 2005)

Assays:
Pa21 gene = Pa21 gene expression by real-time RT-PCR in primary skeletal muscle cells; format: cell-based, human; conditions: 300 uM, about 18-20 hours, vehicle control = 100
From the text: (§1) Human hepatocyte HuH7 cells, which are epithelial cells of liver, were obtained from Japan Health Science Research Resources Bank (Osaka, Japan). Human primary adipocytes, which are connective tissue cells specialized for the synthesis and storage of fat, were obtained from Zen-Bio, Inc (Research Triangle Park, NC). Human primary skeletal muscle cells (SKMC) were obtained from Cambrex Bio Science (Walkersville, Md.). PPARα agonists, Wy14643 (Agatha, et al, 2000, Archives of Biochemistry and Biophysics 380:353-359) and fenofibrates were obtained from Cayman Chemical (Ann Arbor, Mich.) and Sigma (St Louis, Mo.), respectively.
(§2) Human HuH7 cells were cultured in Dulbecco's Modified Eagle Medium with 10% Fetal Bovine Serum (Gibco, N.Y.). […]
(§3) Reverse transcription (RT) and PCR were conducted in one step using “One-Step RT-PCR Master Mix Reagent” kit (Applied Biosystems, Foster City, Calif.) in ABI PRISM 7700 Sequence Detection System (Applied Biosystems). […] PCR data were collected by Ct value (the cycle number at which logarithmic PCR plots cross a calculated threshold line) according to the manufacturer's guidelines and the value was used to determine the Δ^Ct (Ct of the target gene minus the Ct of 18S ribosomal RNA controls). Relative mRNA level was calculated using the equation 2^−ΔΔCt as described previously (Heid et al., 1996, Genome Res. 6:986-994).

Pa9 gene = Pa9 gene expression by real-time RT-PCR in primary adipocytes; format: cell-based, human; conditions: about 18-20 hours, vehicle control = 100
From the text: as §1, §2, §3

CC(C)OC(=O)C(C)(C)Oc1ccc(C(=O)c2ccc(Cl)cc2)cc1 [Fenofibrate]
Pa21 (H4960) gene expression, Percentage ± SE (%) (Pa21 gene): 710 ± 23.1% | Pa9 (W38098) gene expression, Percentage ± SE (%) (Pa9 gene; 10 uM): 114 ± 11.4% | Pa9 (W38098) gene expression, Percentage ± SE (%) (Pa9 gene; 250 uM): 526 ± 25.8%
